Earlier results, collected in patent US4933369A, “Dimethyl tyrosyl amide sulfides, sulfoxides and sulfones” (G. D. Searle & Co., priority 1988, dated 1990).

Tested on: opioid receptors
Details: cited from earlier work

C=CCN1CC[C@]23c4c5ccc(O)c4O[C@H]2C(=O)CC[C@@]3(O)[C@H]1C5 [naloxone]
affinity for all opioid receptors: high affinity | affinity for μ receptors relative to 6 receptor sites (μ receptors vs 6 receptor sites): more than ten times higher
